Consider four compounds from patent US7601708B2, “Bile-acid derived compounds for providing sustained systemic concentrations of drugs after oral administration” (XenoPort, Inc., priority 2000, dated 2009).

Amino acid sequences for entries named in this document (tags omitted).
UniProt Q12908, whole entry: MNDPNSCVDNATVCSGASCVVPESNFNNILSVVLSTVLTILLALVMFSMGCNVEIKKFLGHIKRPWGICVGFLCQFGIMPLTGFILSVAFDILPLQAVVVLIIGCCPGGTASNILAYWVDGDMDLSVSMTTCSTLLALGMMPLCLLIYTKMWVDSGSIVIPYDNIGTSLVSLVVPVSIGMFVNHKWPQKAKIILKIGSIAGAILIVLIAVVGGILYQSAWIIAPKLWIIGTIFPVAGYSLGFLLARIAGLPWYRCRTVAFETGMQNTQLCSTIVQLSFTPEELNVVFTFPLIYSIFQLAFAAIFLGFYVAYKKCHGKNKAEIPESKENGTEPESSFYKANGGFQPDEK

The experiment deals with IBAT (Homo sapiens, UniProt Q12908). In words: Electrogenic transport in Xenopus oocytes expressing IBAT. It is filed as cell-based. The conditions noted are these: maximal induced current relative to glycodeoxycholate (100 μM).

For the compound `C[C@H](CCC(=O)O[C@H](C)C(=O)NCC1(CC(=O)O)CCCCC1)[C@H]1CC[C@H]2[C@@H]3[C@H](O)C[C@@H]4C[C@H](O)CC[C@]4(C)[C@H]3C[C@H](O)[C@]12C`, the “% Max. (GDC)” value was found to be 70%.

As to `C[C@H](CCC(=O)NCC1(CC(=O)O)CCCCC1)[C@H]1CC[C@H]2[C@@H]3[C@@H](O)C[C@@H]4C[C@H](O)CC[C@]4(C)[C@H]3CC[C@]12C`, the “% Max. (GDC)” value (tested form: Na salt) is reported as 60%. With `C[C@H](CCC(=O)OCC(=O)NCC1(CC(=O)O)CCCCC1)[C@H]1CC[C@H]2[C@@H]3[C@H](O)C[C@@H]4C[C@H](O)CC[C@]4(C)[C@H]3C[C@H](O)[C@]12C`, the “% Max. (GDC)” value was 83%. On the same count and under the same terms, for `C[C@H](OC(=O)CC[C@@H](C)[C@H]1CC[C@H]2[C@@H]3[C@H](O)C[C@@H]4C[C@H](O)CC[C@]4(C)[C@H]3C[C@H](O)[C@]12C)C(=O)NCC1(CC(=O)O)CCCCC1` the value was 76%.
